Source: patent publication US8592455B2 (priority 2008, dated 2013)

Target: Pim3 kinase (Homo sapiens (Human), UniProt Q86V86)
Settings: read-out: Pim3 IC50

**Q.** How did the IC50 turn out when `C[C@H]1C[C@@H](c2ccncc2NC(=O)c2nc(-c3c(F)cccc3F)c(F)cc2N)C[C@@H](N)[C@@H]1O` (stereo in doubt) [Example 130, 3-amino-N-(4-(3-amino-4-hydroxy-5-methylcyclohexyl)pyridin-3-yl)-6-(2,6-difluorophenyl)-5-fluoropicolinamide] was run?
**A.** 8 nM

**Q.** How did the IC50 turn out when `Nc1cc(F)c(-c2c(F)cccc2F)nc1C(=O)Nc1cnccc1[C@@H]1CC[C@H](O)[C@H](N)C1` (stereo in doubt) [Example 131, 3-amino-N-(4-(3-amino-4-hydroxycyclohexyl)pyridin-3-yl)-6-(2,6-difluorophenyl)-5-fluoropicolinamide] was run?
**A.** 6 nM

**Q.** How did the IC50 turn out when `C[C@H]1C[C@@H](c2ccncc2NC(=O)c2nc(-c3c(F)cccc3F)c(F)cc2N)C[C@@H](N)[C@H]1O` (stereo in doubt) [Example 132, 3-amino-N-(4-(3-amino-4-hydroxy-5-methylcyclohexyl)pyridin-3-yl)-6-(2,6-difluorophenyl)-5-fluoropicolinamide] was run?
**A.** 6 nM

**Q.** How did the IC50 turn out when `C[C@@H]1C[C@H](N)C[C@H](c2ccncc2NC(=O)c2ccc(F)c([C@H]3CC[C@@H](O)CC3)n2)C1` [Example 54, N-(4-((1R,3S,5S)-3-amino-5-methylcyclohexyl)pyridin-3-yl)-5-fluoro-6-((1s,4s)-4-hydroxycyclohexyl)picolinamide] was run?
**A.** 24 nM

**Q.** Which IC50 does the source give for `Nc1ccc(-c2c(F)cccc2F)nc1C(=O)Nc1cnccc1C1=CC(N)CCC1` (centres unmarked) [Example 107, 3-amino-N-(4-(3-aminocyclohex-1-enyl)pyridin-3-yl)-6-(2,6-difluorophenyl)picolinamide] here?
**A.** 6 nM
